Experimental data published in US11642336B2, “5-HT2A agonists for use in treatment of depression” (priority 2019, dated 2023).
Where a name gives a salt, the structure may show the parent alone.

Protein sequences, listed by entry. Tags and fused reporters are not part of them. Lines headed by an entry give the natural chain unless they say otherwise; changes in a name come on top.
UniProt P28335: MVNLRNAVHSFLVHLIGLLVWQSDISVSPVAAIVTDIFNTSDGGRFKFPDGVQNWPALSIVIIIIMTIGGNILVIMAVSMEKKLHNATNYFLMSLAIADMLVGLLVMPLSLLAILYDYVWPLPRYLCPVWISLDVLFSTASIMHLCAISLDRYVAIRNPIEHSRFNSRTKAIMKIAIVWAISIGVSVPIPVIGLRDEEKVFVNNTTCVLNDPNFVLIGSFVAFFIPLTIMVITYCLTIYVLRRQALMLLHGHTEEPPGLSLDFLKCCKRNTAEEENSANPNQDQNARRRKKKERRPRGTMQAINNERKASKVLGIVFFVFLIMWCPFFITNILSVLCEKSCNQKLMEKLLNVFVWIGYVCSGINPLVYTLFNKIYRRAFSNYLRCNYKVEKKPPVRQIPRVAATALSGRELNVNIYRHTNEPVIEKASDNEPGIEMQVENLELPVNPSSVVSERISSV
UniProt P41595, whole entry, looked up, species assumed: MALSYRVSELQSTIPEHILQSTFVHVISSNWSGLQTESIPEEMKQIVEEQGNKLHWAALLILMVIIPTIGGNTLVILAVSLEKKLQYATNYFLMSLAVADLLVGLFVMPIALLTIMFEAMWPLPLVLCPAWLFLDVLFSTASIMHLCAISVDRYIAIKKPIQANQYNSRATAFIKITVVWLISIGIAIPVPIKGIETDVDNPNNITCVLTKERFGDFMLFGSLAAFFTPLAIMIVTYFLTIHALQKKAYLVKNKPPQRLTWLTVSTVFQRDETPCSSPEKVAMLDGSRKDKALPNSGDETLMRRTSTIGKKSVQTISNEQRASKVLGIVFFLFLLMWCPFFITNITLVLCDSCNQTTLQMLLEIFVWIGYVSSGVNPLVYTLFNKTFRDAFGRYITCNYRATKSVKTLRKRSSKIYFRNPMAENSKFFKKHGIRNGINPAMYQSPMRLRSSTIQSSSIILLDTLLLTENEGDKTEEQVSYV

How the values were obtained:
human 5-HT2A = human 5-HT2A (Homo sapiens (Human), UniProt P28223); type: cell-based; conditions: % of the Rmax of 5-HT
5-HT2C = 5-HT2C (Homo sapiens (Human), UniProt P28335); assay: Ca2+/Fluo-4 assay, stable h5-HT2C-HEK293 cell line; type: cell-based; conditions: % of the Rmax of 5-HT;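 also: Agonist-induced intracellular Ca2+ rise read by Fluo-4 fluorescence in HEK293 cells stably expressing the human 5-HT2C receptor, each compound run in duplicate on three or more occasions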
5-HT2B = 5-HT2B (Homo sapiens (Human), UniProt P41595); assay: radioligand competition binding assay (Psychiatric Drug Screening Program)

COc1cc([C@H]2CCCNC2)c(OC)cc1I [Compound 13, (R)-3-(4-Iodo-2,5-dimethoxyphenyl)piperidine]
5-HT2A Rmax ± S.E.M (human 5-HT2A): 58 ± 4%

COc1cc([C@@H]2CCCNC2)c(OC)cc1SC.Cl [Compound 18, (S)-3-(2,5-dimethoxy-4-(methylthio)phenyl)piperidine hydrochloride]
5-HT2A Rmax ± S.E.M (human 5-HT2A): 84 ± 6% | 5-HT2C Rmax ± S.E.M (5-HT2C): 16 ± 2%

COc1cc([C@@H]2CCCNC2)c(OC)cc1C.Cl [Compound 24, (S)-3-(2,5-dimethoxy-4-methylphenyl)piperidine hydrochloride]
5-HT2A Rmax ± S.E.M (human 5-HT2A): 75 ± 3%

COc1cc([C@@H]2CCCNC2)c(OC)cc1Cl [Compound 10, (S)-3-(4-Chloro-2,5-dimethoxyphenyl)piperidine]
5-HT2A Rmax ± S.E.M (human 5-HT2A): 32 ± 6%

COc1cc([C@H]2CCCNC2)c(OC)cc1SC(C)C [Compound 25, (R)-3-(4-(isopropylthio)-2,5-dimethoxyphenyl)piperidine]
5-HT2A Rmax ± S.E.M (human 5-HT2A): 91 ± 4%

COc1cc([C@@H]2CCCNC2)c(OC)cc1C#N [Compound 16, (S)-2,5-dimethoxy-4-(piperidin-3-yl)benzonitrile]
5-HT2A Rmax ± S.E.M (human 5-HT2A): 25 ± 4%

COc1cc(C(F)(F)F)c(OC)cc1[C@@H]1CCCN(C)C1 [Compound 61, (S)-3-(2,5-dimethoxy-4-(trifluoromethyl)phenyl)-1-methylpiperidine]
5-HT2C Rmax ± S.E.M (5-HT2C): 14 ± 2%

CN(C)CCc1c[nH]c2cccc(O)c12 [Psilocin, psilocin]
Ki (5-HT2B): 4.7 nM

COc1cc(C(F)(F)F)ccc1[C@H]1CCCNC1 [Compound 52, (R)-3-(2-methoxy-4-(trifluoromethyl)phenyl)piperidine hydrochloride]
5-HT2C Rmax ± S.E.M (5-HT2C): 38 ± 6%

COc1cc([C@H]2CCCNC2)c(OC)cc1C#N [Compound 15, (R)-2,5-dimethoxy-4-(piperidin-3-yl)benzonitrile]
5-HT2A Rmax ± S.E.M (human 5-HT2A): 41 ± 6%

CCCCc1cc(OC)c([C@@H]2CCCNC2)cc1OC [Compound 57, (S)-3-(4-butyl-2,5-dimethoxyphenyl)piperidine hydrochloride]
5-HT2A Rmax ± S.E.M (human 5-HT2A): 82 ± 2%

CCOc1cc(C(F)(F)F)c(OC)cc1[C@H]1CCCNC1.Cl [Compound 29, (R)-3-(2-ethoxy-5-methoxy-4-(trifluoromethyl)phenyl)piperidine hydrochloride]
5-HT2C Rmax ± S.E.M (5-HT2C): 34 ± 1%

COc1cc([C@H]2CCCNC2)c(OC)cc1Cl [Compound 9, (R)-3-(4-Chloro-2,5-dimethoxyphenyl)piperidine]
5-HT2A Rmax ± S.E.M (human 5-HT2A): 61 ± 2% | 5-HT2C Rmax ± S.E.M (5-HT2C): 26 ± 2%

COc1cc([C@@H]2CCCNC2)c(OC)cc1Br [Compound 12, (S)-3-(4-bromo-2,5-dimethoxyphenyl)piperidine]
5-HT2A Rmax ± S.E.M (human 5-HT2A): 37 ± 4%

COc1cc([C@@H]2CCCNC2)c(OC)cc1SC(C)C [Compound 26, (S)-3-(4-(isopropylthio)-2,5-dimethoxyphenyl)piperidine]
5-HT2A Rmax ± S.E.M (human 5-HT2A): 92 ± 4%

CCCCc1cc(OC)c([C@H]2CCCNC2)cc1OC [Compound 56, (R)-3-(4-butyl-2,5-dimethoxyphenyl)piperidine hydrochloride]
5-HT2A Rmax ± S.E.M (human 5-HT2A): 93 ± 5% | 5-HT2C Rmax ± S.E.M (5-HT2C): 68 ± 6%

COc1cc([C@H]2CCCNC2)c(OC)cc1C.Cl [Compound 23, (R)-3-(2,5-dimethoxy-4-methylphenyl)piperidine hydrochloride]
5-HT2A Rmax ± S.E.M (human 5-HT2A): 89 ± 4% | 5-HT2C Rmax ± S.E.M (5-HT2C): 53 ± 6%

COc1cc([C@H]2CCCNC2)c(OC)cc1SC.Cl [Compound 17, (R)-3-(2,5-dimethoxy-4-(methylthio)phenyl)piperidine hydrochloride]
5-HT2A Rmax ± S.E.M (human 5-HT2A): 85 ± 7% | 5-HT2C Rmax ± S.E.M (5-HT2C): 38 ± 5%

COc1cc([C@@H]2CCCNC2)c(OC)cc1I [Compound 14, (S)-3-(4-Iodo-2,5-dimethoxyphenyl)piperidine]
5-HT2A Rmax ± S.E.M (human 5-HT2A): 53 ± 3%

CCOc1cc([C@@H]2CCCNC2)c(OC)cc1C(F)(F)F.Cl [Compound 20, (S)-3-(5-ethoxy-2-methoxy-4-(trifluoromethyl)phenyl)piperidine hydrochloride]
5-HT2C Rmax ± S.E.M (5-HT2C): 44 ± 5%

CCc1cc(OC)c([C@H]2CCCNC2)cc1OC.Cl [Compound 31, (R)-3-(4-ethyl-2,5-dimethoxyphenyl)piperidine hydrochloride]
5-HT2A Rmax ± S.E.M (human 5-HT2A): 93 ± 5%

COc1cc([C@H]2CCCNC2)c(OC)cc1Br [Compound 11, (R)-3-(4-bromo-2,5-dimethoxyphenyl)piperidine]
5-HT2A Rmax ± S.E.M (human 5-HT2A): 67 ± 6% | 5-HT2C Rmax ± S.E.M (5-HT2C): 34 ± 4%
